The values that follow come from ChEMBL document CHEMBL4118144, “Design, Synthesis, and Testing of Potent, Selective Hepsin Inhibitors via Application of an Automated Closed-Loop Optimization Platform” (J Med Chem, 2018).

For assay [1], the species on record is Homo sapiens. In words: Selectivity ratio of IC50 for recombinant C-terminal His10-tagged human uPA (M1 to L431 residues) to IC50 for recombinant C-terminal His10-tagged human Hepsin (R45 to […] residues) D161E/ R162K double mutant by automated fluorescence assay.
The species entered for assay [2] is Homo sapiens. In words: Selectivity ratio of IC50 for recombinant C-terminal His10-tagged human uPA (M1 to L431 residues) to IC50 for recombinant C-terminal His10-tagged human Hepsin (R45 to […] residues) D161E/ R162K double mutant by manual fluorescence assay.

Molecules are shown by their SMILES.

As for `Cc1ccc(S(=O)(=O)N[C@@H](C(=O)Nc2ccc(C(=N)N)cc2)C2CCCCC2)cc1`, the Ratio IC50 in the assay filed under Homo sapiens [1] was 133; in the assay filed under Homo sapiens [2], greater than 142. For `N=C(N)c1ccc(NC(=O)[C@H](NS(=O)(=O)c2ccc(F)cc2)C2CCCCC2)cc1` the same measures were greater than 155 and 1450. With `Cc1ccc(S(=O)(=O)NC(C(=O)Nc2ccc(C(=N)N)cc2)c2ccccc2)cc1` (stereo unspecified), the Ratio IC50 in the assay listed under Homo sapiens [2] amounted to 240. Still for that read-out and setting: the same measure for `Cc1ccc(S(=O)(=O)N[C@@H](C(=O)Nc2ccc(C(=N)N)cc2)c2ccccc2)cc1`: 6360.
